Results from patent US7531500B2, “Preventing airway mucus production by administration of EGF-R antagonists” (The Regents of the University of California, priority 1998, dated 2009).

Legend:
Format in all cases: cell-based, human
NCI-H292 cells [1] = experiment: Northern analysis for MUC5 gene expression in NCI-H292 cells; conditions: EGF or TGFα 25 ng/ml, TNFα 20 ng/ml; 12 h, 24 h
Description: (§1) Cell culture. A human pulmonary mucoepidermoid carcinoma cell line, NCI-H292 cells, were grown in RPMI11640 medium containing 10% fetal bovine serum, penicillin (100 U/ml), streptomycin (100 μg/ml) at 37° C. in a humidified 5% CO2 water-jacketed incubator. When confluent, cells were incubated with EGF (recombinant human EGF, 25 ng/ml, Genzyme, Cambridge, Mass.), TGFα (recombinant human TGFα, 25 ng/ml, Qenzyme), TNFα (recombinant human TNFα, 20 ng/ml, Genzyme), EGF (25 ng/ml) plus TNFα (20 ng/ml) or TGFα (25 ng/ml) plus TNFα (20 ng/ml) for 12 h, 24 h or 48 h. In inhibition studies with an EGF-R tyrosine kinase inhibitor, BIBX1522 (10 μg/ml, generously provided by Boehringer Ingelheim Inc., Ingelheim, Germany), cells were pretreated with BIBX1522 30 min before adding growth factors. After incubation, cells grown in a T-75 flask were used for total RNA extraction or protein extraction, and 8-chamber slides were used for Alcian blue/PAS-staining to visualize mucins.
(§2) Probes. EGF-R mRNA expression was determined using the linearized pTRI-EGF-R-human probe template (Ambion, Austin, Tex.). This probe contains a 360 bp cDNA fragment of the human EGF-R gene, which spans exons 12-14. MUCG gene expression was determined using human MUC5AC probe, which contains a 298 bp cDNA fragment of human MUC5AC gene (generously provided by Dr. Carol Basbaum).
(§3) Northern blotting. […]

NCI-H292 cells [2] = experiment: Northern analysis of EGF-R in NCI-H292 cells; conditions: TNFα 20 ng/ml; present at 12 h, increased at 24 h
Description: as §1, §2, §3

NCI-H292 cells [3] = experiment: Immunoassay of MUC5AC protein in NCI-H292 cells (Example 2); conditions: 1 h incubation, protein at 24 h; IL-8 10^-8 M, fMLP 10^-8 M, TNFα 20 ng/ml
Description: Cell Culture. NCI-H292 cells, a human pulmonary mucoepidermoid carcinoma cell line, were grown in RPMI 1640 medium containing 10% fetal bovine serum, penicillin (100 U/ml), streptomycin (100 μg/ml) and Hepes (25 mM) at 37° C. in a humidified 5% CO2, water-jacketed incubator. Either 6-well culture plates or 8-chamber slides were used to culture the cells. When confluent, cells were incubated for 1 h with neutrophils (10^6 cells/ml) alone, TNFα alone (recombinant human TNFα, 20 ng/ml, Genzyme, Cambridge, Mass.), IL-8 (recombinant human IL-8, 10^−8 M, Genzyme) alone, fMLP (10^−8 M, Sigma, St. Louis, Mo.) alone, TNFα plus neutrophils, IL-8 plus neutrophils, fMLP plus neutrophils, hydrogen peroxide (H2O2, 200 μM), cigarette smoke solution or TGFα (recombinant human TGFα, 0.1-25 ng/ml, Calbiochem, San Diego, Calif.). The cells were then washed and incubated with fresh medium alone. Experiments were terminated at preselected times (for mRNA, 6 h and 12 h; for protein, 24 h). As controls, cells were incubated with medium alone for same time periods. […]
Immunoassay of MUC5AC Protein. MUC5AC protein was measured as described above. […] Absorbance was read at 450 nm.

In the case of “TNFα: recombinant human tumor necrosis factor alpha (Genzyme)”, the “MUC5 gene expression on incubation with mediator” value (NCI-H292 cells [1]) is reported as “did not affect MUC5 gene expression”, the EGF-R gene expression (NCI-H292 cells [2]) is reported as “up-regulated EGF-R gene expression” and the “MUC5AC synthesis, stimulus alone without neutrophils” value (NCI-H292 cells [3]) is reported as “small, insignificant increase”.
